In patent publication US20260008801A1, “BIO-BASED SURFACTANTS DERIVED FROM CARBOHYDRATES” (COÖPERATIE KONINKLIJKE COSUN U.A., priority 2022, published 2026):

How the values were obtained:
[1] = Foaming abilities, 1% compound solutions shaken by hand; assay type: physicochemical; set-up: key: −: no foam formation; +: low foam formation; ++: moderate foam formation; +++: strong foam formation; settings: Table E7
Description: Foaming abilities were evaluated at room temperature by shaking 1% compound solutions (2 ml) of pH 3, 7, and 12 by hand for 10 s. The pH of each solution was assessed with a pH meter at room temperature. […] The foam heights at the initial time were compared to one another after which the foaming abilities were classified according to no foam formation (−), low foam formation (+), moderate foam formation (++), and strong foam formation (+++).

[2] = Surface tension measurements, Wilhelmy plate (surface tension, CMC); assay type: physicochemical; settings: Table E7
Description: Surface tension measurements were performed with a Biolin Scientific Sigma701 automatic tension meter equipped with a Wilhelmy plate made of platinum (±0.5 mN/m). At room temperature and a pH of 7, different concentrations of aqueous solutions (0.01%-max. 12.5%; 4 ml) of synthesized compounds and of commercially available surfactants (SLES, which is sodium laureth sulfate, and SCG, which is sodium cocoyl glutamate) were measured continuously (30 sec) (‘continuous Wilhelmy plate’ method) using small plastic petri dishes. The number of experimental points is related to the compound's/surfactant's solubility and available quantity. All compound/surfactant solutions were allowed to stand 12 h before being measured. The platinum plate was thoroughly cleaned with demi water and flame-dried before each measurement. The CMC of each compound/surfactant was determined at the minimum of a breakpoint of a conventional plot of surface tension versus compound/surfactant concentration. DCMC was obtained by acquiring the surface tension at the CMC. The pC20 value was determined by taking the minus log of the concentration compound/surfactant at a surface tension of 52 mN/m.

[3] = Solubility in water (excess of compound in 4 ml demi water); settings: Table E7, commercially available surfactants

FOAM [1]: ++
SURFACE TENSION [2]: 36.6 mN/m
SOLUBILITY (H2O) [3]: Yes
Substance: sodium cocoyl glutamate [SCG, reference compound]
